Only a part is listed here, and it is no random draw. Activity calls are given as the source filed them.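 Rule for the calls: active = compounds that reduce the energy-transfer binding signal between the protein and its labelled peptide by more than half; inactive = the rest.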

Chains of the proteins cited; added tags and fusions are not shown.
UniProt P84022, whole entry, looked up: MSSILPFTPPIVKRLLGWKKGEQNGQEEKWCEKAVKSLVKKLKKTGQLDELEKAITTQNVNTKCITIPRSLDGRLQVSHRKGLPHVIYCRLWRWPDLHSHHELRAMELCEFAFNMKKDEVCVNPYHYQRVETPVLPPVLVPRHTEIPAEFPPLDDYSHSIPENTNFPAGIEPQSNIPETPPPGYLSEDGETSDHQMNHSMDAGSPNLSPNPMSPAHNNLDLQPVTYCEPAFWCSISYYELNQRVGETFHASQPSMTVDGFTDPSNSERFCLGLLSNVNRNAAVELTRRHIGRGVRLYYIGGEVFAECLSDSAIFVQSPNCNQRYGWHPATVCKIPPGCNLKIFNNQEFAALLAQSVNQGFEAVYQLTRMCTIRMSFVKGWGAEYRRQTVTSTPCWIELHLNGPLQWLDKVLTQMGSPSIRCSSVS

This test has as its target Mothers against decapentaplegic homolog 3 (Homo sapiens) (UniProt P84022). The experiment in a line: blockers of Smad3 binding to FoxH1 – biochemical, TR-FRET, primary screen (AID 630).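 Note: 0% = Smad3 plus labelled peptide maximal FRET and 100% = peptide-only background.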 Conditions: TR-FRET Smad3/Dy647-FoxH1 peptide binding, europium anti-His; at 25 µM; active compounds read high.
For `COC(=O)c1cc2c(s1)N=C(c1ccccc1)N(C)P2(=O)N1CCOCC1` (configuration not stated), the inhibition is inactive: 7.11%.
With `O=P1(Nc2nc3ccc(Cl)cc3s2)COc2ccccc2O1` (configuration not stated), the inhibition is inactive: -24.3%.
`c1nnnn1CCn1cnnn1`: the inhibition was inactive: -3.05%.
In the case of `O=P(Nc1nccs1)(c1ccccc1)c1ccccc1`, the inhibition is inactive: 6.67%.
As for `C[C@@H](O)COc1ccc([As](=O)(O)O)cc1N`, the inhibition is inactive: 1.19%.
Then `CN1CCC[C@H](OC(=O)C(c2ccccc2)c2ccccc2)C1`, with inactive: -0.27%.
Turning to `[N-]=[N+]=Nc1ccc([As](=O)(O)O)cc1`, the inhibition was inactive: 11.3%.
In the case of `O=C(OC1CN2CCC1CC2)c1cccc(Cl)c1` (configuration not stated), the inhibition was inactive: -4.33%.
Next, `CCc1nc2c(n1)c1c(non1O)c1c2no[n+]1[O-]`: inactive: 7.62%.
In the case of `O=[N+]([O-])c1cccc2n[nH]nc12`, the inhibition was inactive: -2.28%.
Then `O=C(CO)Nc1ccc([As](=O)(O)O)cc1`, with inactive: -1.78%.
Consider `CC1CCN(C(=O)Oc2c(Cl)cc(Cl)c3cccnc23)CC1`, for which the inhibition was inactive: -27.5%.
Take `CN1CCCC(OC(=O)C(c2ccccc2)c2ccccc2)C1` (configuration not stated): the inhibition was inactive: -2.93%.
In the case of `O=[N+]([O-])c1ccc(C[As](=O)(O)O)cc1`, the inhibition was inactive: 1.41%.
Next, `NCC[C@@H](N)CSP(=O)(O)O`: inactive: 11%.
As to `Oc1ccccc1CNc1ccccn1`, the inhibition is inactive: 0.72%.
Then `Cc1c2non([O-])c-2c(C)[n+](=O)[n+]1[O-]`, with inactive: 12.7%.
For the compound `CCOP(=O)(Nc1ccccc1)OCC`, the inhibition is inactive: 0.23%.
For `C(Cc1nn[nH]n1)c1nn[nH]n1`, the inhibition was inactive: -3.39%.
As for `[N-]=[N+]=NCC(O)CN=[N+]=[N-]` (configuration not stated), the inhibition is inactive: 2.48%.
With `O=[As]c1ccc(S(=O)(=O)NCCO)cc1` (configuration not stated), the inhibition is inactive: 33.8%.
`ClCCSc1nnc(-c2cccnc2)o1`: the inhibition was inactive: -9.56%.
Take `[N-]=[N+]=NCC(N)=O`: the inhibition was inactive: 8.64%.
Turning to `NC(=O)Nc1cc([As](=O)(O)O)cc(I)c1O`, the inhibition was inactive: 11.1%.
As to `O=C(OC1CN2CCC1CC2)C12CC3CC(CC(C3)C1)C2` (configuration not stated), the inhibition was inactive: 3.29%.
For the compound `O=C(O)[C@@H](O)c1ccc([As](=O)(O)O)cc1`, the inhibition was inactive: -18.4%.
Consider `O=C(COc1ccccc1)OC1CN2CCC1CC2` (configuration not stated), for which the inhibition is inactive: -9.88%.
As to `COP1(=S)c2c(C)nn(CCC#N)c2N=C(c2ccc(F)cc2)N1C` (configuration not stated), the inhibition was inactive: 11.8%.
Regarding `CCC(C)N(CC(C)C)C(=S)SC(NC(C)=O)C(Cl)(Cl)Cl` (configuration not stated), the inhibition is inactive: -5.92%.
Next, `Cc1nn(-c2ccccc2)c2c1P(=O)(N1CCOCC1)N(C)C(c1ccccc1)=N2` (configuration not stated): inactive: 9.72%; `O=P1(Nc2ccc(Br)cn2)COc2ccccc2OC1`: inactive: 0.12%; `Cc1ccc(OCC(=O)OC2CN3CCC2CC3)cc1` (configuration not stated): inactive: 0.33%.
`O=P1(Nc2ncccn2)COc2ccccc2OC1`: the inhibition is inactive: 0.62%.
Then `Clc1n[nH]nc1-c1nn[nH][15n]1`, with inactive: -0.88%.
Turning to `O=P1(Nc2ccccn2)COc2ccccc2OC1`, the inhibition is inactive: -4.91%.
Regarding `CC1(CBr)Cn2c(nc3ccccc3c2=O)S1` (configuration not stated), the inhibition is inactive: 1.68%.
As to `Cc1cccc(OCC(=O)OC2CN3CCC2CC3)c1` (configuration not stated), the inhibition is inactive: 3.31%.
Then `O=C(CC(=O)c1ccccc1)O[C@H]1CN2CCC1CC2`, with inactive: -0.31%.
For `NS(=O)(=O)Cc1ccc([As](=O)(O)O)cc1`, the inhibition is inactive: -1.25%.
In the case of `O=[As](O)(O)c1ccc([As](=O)(O)O)cc1`, the inhibition was inactive: -5.17%.
Regarding `CCOP1(=S)c2c(C)nn(CCC#N)c2N=C(c2ccccc2F)N1C` (configuration not stated), the inhibition was inactive: 0.37%.
`CCOP1(=S)c2c(C)nn(CCC#N)c2N=C(c2ccc(F)cc2)N1C` (configuration not stated): the inhibition is inactive: 0.64%.

Source of the values: PubChem BioAssay AID630 (Emory University Molecular Libraries Screening Center, 2007).
